One substance from patent publication US12171769B2, “Methods, compositions, and kits for treating and/or preventing a side effect associated with radiation and/or chemotherapy exposure” (BioMimetix JV, LLC, priority 2017, dated 2024) can be followed below.

Experiment [1] concerns FaDu (human pharyngeal carcinoma) cells. The note with it: for percentage of mice with complete tumor regression: day 90 post-treatment, MnBuOE 0.6/0.3 mg/kg.
For a further experiment, the system named is GSH/GSSG. The note with it: MnBuOE alone, single 0.2 mg/kg dose; compared to saline and saline+RT controls. On the procedure: MnBuOE synthesis and administration: MnBuOE was synthesized as previously described. […] Mouse injections were administered subcutaneously, with MnBuOE dissolved in sterile saline. Mice received an initial dose of 0.2, 0.6, or 2.0 mg/kg, followed by three times per week (t.i.w.) maintenance doses of one-half of the loading dose (i.e., 0.1, 0.3, or 1.0 mg/kg, respectively) (termed 2/1, 0.6/0.3 and 0.2/0.1 dosing schedules).

The test system of experiment [2] is normal tissue injury following RT+cisplatin. The note with it: 12 weeks post-RT+cisplatin; MnBuOE 0.6/0.3 mg/kg for five weeks. On the procedure:
Mice were treated with 1×9Gy+6 mg/kg cisplatin.
A collimating cone that produced a 15 mm×40 mm radiation field was used to target the radiation beam to the salivary gland and oral cavity. The RT field included all major and minor salivary glands (located primarily in the neck region of mice), and the oral mucosa, including glands of the cheeks, lips and tongue. The target tissues were localized within the radiation field with a source-to-subject distance of 30.76 cm, using fluoroscopy at 40 kVp and 2.5 mA with a 2 mm Al filter. […] Control mice were anesthetized but not imaged fluoroscopically or irradiated.
Mucositis evaluation using fluorescence molecular tomography: As reported previously, we used ProSense 750EX (Perkin Elmer, Waltham, MA) to detect mucositis. ProSense 750EX is a near-infrared (NIR) imaging agent that is cleaved by cathepsins, a family of enzymes that are expressed during inflammation, (17). Mice were injected intravenously with 100 μL ProSense 750EX. Twenty-four hours after injection, mice were anesthetized via isoflurane and imaged using the Visen FMT 2500LX (Perkin Elmer). The ProSense 750EX signal was quantified using TrueQuant software (Perkin Elmer Life and Analytical Sciences, Downers Grove, IL).

Another experiment has as its system cognitive function. Conditions: after 8 weeks of chemoradiation therapy compared to time 0. On the procedure: Four different loading doses were tested, which were: 7, 14, 28 and 42 mg, and the maintenance doses were half of the respective loading dose. The loading dose was administered prior to chemoradiation, and for the duration of treatment the respective maintenance doses were administered twice a week (i.e., a patient administered a 7 mg loading dose received two separate maintenance doses of 3.5 mg each week for 8 weeks.) The primary focus of this study is to determine the maximum tolerated dose of four dose levels. […] All subjects have a diagnosis of glioblastoma (WHO grade IV) and mean age is 62.7 years (range 54 years to 80 years).
Cognitive testing included Hopkins Verbal Learning Test-Revised (HVLT-R), Trails Making A and B Tests, and Controlled Oral Wood Association Test (COWA). […] This is notable because these are the primary cognitive tests that reveal poorer performance in multiple brain mestastases patients after whole brain radiation therapy.

Read-outs that look alike come from different tables or passages of the source.

Consider “manganese butoxyethyl pyridyl porphyrin [BMX-001]”, for which the “tumor growth relative to RT/cisplatin” value in experiment [1] (0.6 mg/kg loading dose then t.i.w. 0.3 mg/kg, fractionated RT + cisplatin 6 mg/kg) was “did not significantly affect tumor growth”. In experiment [1] (90 days post-treatment, sham, 3×6Gy or 3×9 Gy groups), the tumor-free mice result was “No mice were tumor-free”. Moreover, the “percentage of mice with complete tumor regression” value in experiment [1] (3×12Gy + cisplatin) amounted to 33%; in experiment [1] (3×15Gy + cisplatin) it was 40%; in experiment [1] (3×17Gy + cisplatin), 50%. Moreover, in the experiment on GSH/GSSG, the “GSH/GSSG ratio in tongue tissue” value is listed as “slightly increased”. Further, the “mice that still had ulcers in the mouth and surrounding skin and had failed to gain weight post-RT” value in experiment [2] was 1 out of 4. Moreover, the “decline in cognitive function” value in the experiment on cognitive function is recorded as “no measurable decline”.
